According to ChEMBL document CHEMBL5143617 (Eur J Med Chem, 2022):
Structures can show the parent of a compound that is named as a salt.

Chains of the proteins cited; added tags and fusions are not shown. Lines headed by an entry give the natural chain unless they say otherwise; changes in a name come on top.
UniProt Q9Y233: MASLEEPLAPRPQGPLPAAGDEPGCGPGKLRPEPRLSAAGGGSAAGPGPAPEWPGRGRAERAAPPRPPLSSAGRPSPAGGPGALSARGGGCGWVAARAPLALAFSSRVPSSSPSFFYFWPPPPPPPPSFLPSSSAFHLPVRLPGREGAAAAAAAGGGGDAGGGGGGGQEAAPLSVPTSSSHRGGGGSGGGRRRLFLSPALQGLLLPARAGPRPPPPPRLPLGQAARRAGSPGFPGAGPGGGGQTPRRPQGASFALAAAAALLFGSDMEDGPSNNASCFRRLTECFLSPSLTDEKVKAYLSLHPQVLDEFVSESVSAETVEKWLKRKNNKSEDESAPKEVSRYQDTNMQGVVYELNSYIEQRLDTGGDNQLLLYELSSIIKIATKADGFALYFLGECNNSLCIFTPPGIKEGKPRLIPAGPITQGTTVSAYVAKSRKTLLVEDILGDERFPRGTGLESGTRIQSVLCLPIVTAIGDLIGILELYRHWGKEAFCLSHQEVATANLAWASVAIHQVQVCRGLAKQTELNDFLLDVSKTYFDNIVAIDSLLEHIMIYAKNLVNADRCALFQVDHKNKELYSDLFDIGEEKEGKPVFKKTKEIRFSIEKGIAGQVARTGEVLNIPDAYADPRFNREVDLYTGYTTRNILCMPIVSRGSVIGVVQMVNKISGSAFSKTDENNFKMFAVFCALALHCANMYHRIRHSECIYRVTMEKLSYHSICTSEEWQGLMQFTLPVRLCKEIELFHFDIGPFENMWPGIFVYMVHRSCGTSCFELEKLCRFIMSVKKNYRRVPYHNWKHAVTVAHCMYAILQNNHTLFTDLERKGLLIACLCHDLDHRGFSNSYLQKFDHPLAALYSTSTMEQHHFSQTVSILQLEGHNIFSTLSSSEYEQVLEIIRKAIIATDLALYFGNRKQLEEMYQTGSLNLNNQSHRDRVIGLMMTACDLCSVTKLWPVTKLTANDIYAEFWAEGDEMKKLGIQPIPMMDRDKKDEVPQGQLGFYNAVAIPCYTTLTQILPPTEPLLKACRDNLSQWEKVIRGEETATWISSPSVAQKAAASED

Biological target: cAMP and cAMP-inhibited cGMP 3',5'-cyclic phosphodiesterase 10A (Homo sapiens, UniProt Q9Y233)
Assay: Inhibition of PDE10A (unknown origin) preincubated for 20 mins followed by substrate addition and measured after 1 hr by PEDlight AMP detection reagent based luminescence assay

SMILES: COc1ccc(Cc2nccc3cc(OC)c(OC)cc23)cc1OC [PAPAVERINE HYDROCHLORIDE]
- IC50: 3.16 µM
